Assays:
[1] = Dimensional distribution of nebulized droplets by laser light scattering (Sympatec Helos); type: physicochemical; conditions: after first minute of continuous delivery
Experimental: (§1) has improved in relation to the droplet diameter of the nebulized product and/or to the dose delivered in a standard delivery time for a patient, correspondent to 5 minutes, we have dispersed in 2 ml of distilled water 40 mg of powder, produced according to example 4 later described, correspondent to a 240 μg dose of salbutamol, comparing it with an equivalent dose of salbutamol sulphate dissolved in 2 ml of distilled water.
The same formulation has been investigated measuring after the first minute of continuous delivery the dimensional distribution of the delivered droplets, by putting the device in front of a laser ray of a light scattering particle size analyzer, Sympatec Helos, provided of a R1 measuring lens for the range 0.1-35 μm.

[2] = Dose delivered from nebulizers in 5 minutes without forced inhalation; type: physicochemical; conditions: 240 μg salbutamol dose in 2 ml distilled water
Experimental: M, A: nebulizer provided with a mesh or a piezoelectric device
C: pneumatic nebulizer (jet nebulizer)
as §1
The 2 ml of solution of the two compositions taken in consideration have been loaded in the 4 nebulizers and these have been activated for 5 minutes to measure the delivered amount without forced inhalation.

[3] = nebulizer A (mesh or piezoelectric)

X50 of delivered droplets [1, 3]: 8.21 μm
X50 of delivered droplets ([1]; nebulizer C (pneumatic, jet)): 8.67 μm
X50 of delivered droplets ([1]; nebulizer N (ultrasonic)): 6.52 μm
Delivered dose [2, 3]: 26.1%
Delivered dose ([2]; nebulizer C (pneumatic, jet)): 56.7%
Delivered dose ([2]; nebulizer M (mesh or piezoelectric)): 14.1%
Delivered dose ([2]; nebulizer N (ultrasonic)): 58.5%
Substance: salbutamol sulphate
